Measurements reported in patent US6375927B1, “Methods of radiotherapy using biomodulators” (priority 1991, dated 2002).

Test system: B-16 melanoma cells
Assay: Biodistribution: uptake of 99mTc-PWM versus 99mTc-HSA
Format: in vivo, Mice
Method: Mice were injected with B-16 melanoma cells 7 days prior to intravenous injection of ^99mTc-PWM or ^99mTc-HSA (human serum albumin). Biodistribution studies were performed 2 and 4 hours later. At 2 hours post injection, the absolute percent uptake into the tumor was 0.41% for Tc-PWM, and 0.36% for Tc-HSA. At four hours post injection, the absolute uptake decreased to 0.25% of the injected dose for both agents.

Tc-HSA: 99mTc-labeled human serum albumin, non-specific imaging agent
Visualization of the tumor (B-16 melanoma mice): not observed | absolute uptake into the tumor, of the injected dose (mouse, in vivo, iv): 0.25%
